AlphaSeq binding of Ab-14 light chain variants to a spike HR2 peptide

Binding partner: SARS-CoV-2 spike HR2 peptide, sequence PDVDLGDISGINAS.

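The variants were designed computationally from a first round of random CDR variants and then made and measured. Group labels follow the data file (Ctrl: baseline library sampled from a position-specific scoring matrix, with some repeated check sequences; En: ensemble of fine-tuned language models; GP: Gaussian process model; HC: hill climbing; Gen: genetic algorithm; Gibbs: Gibbs sampling; a sequence that several methods proposed may carry one label only). The assay is AlphaSeq: two haploid yeast populations carry antibody and antigen on their surface. Pairs that bind mate more often; barcode pairs of the diploids are counted by sequencing. Read counts were normalised to the haploid input and turned into Kd by a linear fit to BCL2-family pairs of known affinity, for each replicate. The assay was run in six technical replicates.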

Ab-14 is the parent antibody, in scFv form: VH, then a (GGGGS)3 linker, then VL. The heavy chain is unchanged in all variants.
VH: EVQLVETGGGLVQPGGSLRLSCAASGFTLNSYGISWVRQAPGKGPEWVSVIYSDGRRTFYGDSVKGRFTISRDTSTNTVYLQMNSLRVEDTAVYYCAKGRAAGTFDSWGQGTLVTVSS
VL: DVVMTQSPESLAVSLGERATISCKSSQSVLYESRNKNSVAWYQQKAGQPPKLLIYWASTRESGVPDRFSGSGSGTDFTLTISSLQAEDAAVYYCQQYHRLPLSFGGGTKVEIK

Variants are written as CDR1, CDR2 and CDR3 of the light chain (limits as in the source). Parent: KSSQSVLYESRNKNSVA, WASTRES, QQYHRLPLS. This list holds designs with more than six substitutions. The Kd shown is the geometric mean over detected replicates; a lower Kd is a better binder. "nd" means that the variant was in the library but no mating with the target was seen in any replicate; the authors take this as a sign of poor binding, and no number exists. Order: sorted from the lowest average up, undetected variants last.

The variant SLYEMAHELSGKKNSVA | DNSTRGE | QQYFRLPLE [En_Gen] showed 670 pM (6 of 6 replicates). For KMSQEAMMLSRNQNSVA | QASTREQ | QQYHRLPLS [GP_Gibbs], the assay gave 710 pM (6 of 6 replicates). The variant KLAMYLEMWADTYHGVA | DANHKAS | QQYNRLPLS [En_Gibbs] gave 930 pM (6 of 6 replicates). For KLTGVTSYEMQNKNSVA | QMTTRES | QQYHRLPLS [En_HC], the assay gave 1.1 nM (6 of 6 replicates). With HINTADVGVSDHYNAVA | EQRIAGI | QQYFRLPLS [En_Gibbs] the result was 1.2 nM (6 of 6 replicates). For NISQMIFMETKNVNNVA | QTSTREE | QDYHRLPLS [En_HC], the assay gave 1.3 nM (6 of 6 replicates). With HLSQSVDLESVHKNSIA | DLMTRTS | QQYHRLPLS [En_HC] the result was 1.3 nM (6 of 6 replicates). With KFSQQVLYESRVMNSVA | NASQRLS | QQYHRLPLS [GP_Gibbs] the result was 1.5 nM (6 of 6 replicates). For TISTSMRYESSLKNAIA | NAQTRES | QQYHRLPLS [En_HC], the assay gave 1.5 nM (6 of 6 replicates).

The variant WLSMSVMLWSRNVNSVA | SASTREE | QQYHRLPLS [GP_Gibbs] gave 1.5 nM (6 of 6 replicates). The variant KLYVSTMLESHAKNSIA | DLSTRGN | QQYHRLPLS [En_HC] showed 1.5 nM (6 of 6 replicates). The variant KVSIEVLMGDRNKNSVA | KASTRES | QQYHRLPLS [GP_Gibbs] gave 1.5 nM (6 of 6 replicates). The variant TVSQVHGMLQHNKNSVA | DMNTRGS | QQYDRLPLS [En_HC] gave 1.6 nM (6 of 6 replicates). With NMHNMCYQYENYGNSIA | QAQLREN | QQYSRLPFT [En_Gibbs] the result was 1.9 nM (6 of 6 replicates). The variant TLYGLTNSMSKNSNNVA | EMSTREA | QQYDRLPLV [En_Gen] gave 2.3 nM (6 of 6 replicates). The variant KYSQSQLYEDRMVNSVA | NASQRMS | QQYHRLPLS [GP_Gibbs] showed 2.6 nM (6 of 6 replicates). The variant MISQSFLIGMKAKNNVA | QTSTRES | QQYDRLPLS [En_HC] gave 2.8 nM (6 of 6 replicates). With TISQMTSLFSQSINNVA | EVSTREK | QQYDRLPLM [En_Gen] the result was 3.4 nM (6 of 6 replicates).

The variant KMQGSVLMLSRNCNSVA | QASTREQ | QQYHRLPLS [GP_Gibbs] showed 4.5 nM (6 of 6 replicates). The variant HMSMLTMMGMKQRNSVA | QMTMREN | QQYDRLPLA [En_Gen] showed 5.4 nM (6 of 6 replicates). For KISMSYRYEMQEKNSIA | EMTTREE | QSYHRLPLS [En_HC], the assay gave 5.8 nM (6 of 6 replicates). With MIGEMLMQGAYKKNSVA | QANLRAE | QHYNRLPLE [En_Gen] the result was 6.0 nM (6 of 6 replicates). For KLMGSELGESRNKNSVA | SADTRES | QQYHRLPLS [GP_Gibbs], the assay gave 6.7 nM (6 of 6 replicates). The variant KSSNSVNTESFHKNSVA | MASTRES | QQYARLPLS [Ctrl] gave 7.0 nM (6 of 6 replicates). The variant HMSQVTMYGYWLKNSVA | QTSTREE | QQYDRLPLS [En_HC] gave 8.7 nM (6 of 6 replicates). For SISGFMKSLSAHNNNVA | DMTNREN | QQYDRLPLS [En_Gen], the assay gave 10 nM (6 of 6 replicates). The variant KISYQYRYEQLSKNSIA | EAQTRLK | QQYHRLPLS [En_HC] showed 10 nM (6 of 6 replicates).

The variant MFSQLLMYGSRNYNSVA | QASTRES | QQYHRLPLI [En_HC] showed 19 nM (6 of 6 replicates). The variant QLLMATMQGWYNRNSVA | HAETRED | QSYHRLPLS [En_HC] showed 28 nM (6 of 6 replicates). The variant KLTHLTFVLDRQKYSIA | DSERKAE | QQYNRLPLT [En_Gibbs] showed 51 nM (6 of 6 replicates). With KLSQSVRMESFNKDSVA | ENSTREA | QDYHRLPLS [En_HC] the result was 52 nM (2 of 6 replicates). The variant MISQLINMGSFAINSVA | QASIRCN | QQYDRLPLT [En_Gen] showed 54 nM (2 of 6 replicates). With MFSQLTYTGQRARNAVA | QASTREN | QQYHHLPLI [En_HC] the result was 78 nM (5 of 6 replicates). With IVSQLMLWGYHASNSIA | EAQTRLN | QQYDRLPLF [En_Gen] the result was 88 nM (5 of 6 replicates). The variant KLSMVTGHMLMSKDNVA | EMETREN | QQYDRLPLS [En_Gen] gave 100 nM (6 of 6 replicates). The variant KLRMLTLTGGYFKNSVA | QASTREN | QSYHRLPLS [En_HC] gave 100 nM (6 of 6 replicates).

The variant MISDTGLHDSRMQNSVA | NNSTREA | QQYHRLPLS [En_HC] gave 140 nM (6 of 6 replicates). The variant NFSYALFGMDAKKKSIA | ENEVTEY | QQYAKLPLT [En_Gibbs] showed nd (0 of 6 replicates). For ATDHQEESGQEWEANVA | QDEQRAE | QQYHHLPLM [En_Gibbs], the assay gave nd (0 of 6 replicates).

Extract of 2 entries:

| CDR-L1 | CDR-L2 | CDR-L3 | group | Kd (apparent) | detected |
|---|---|---|---|---|---|
| HLSQSVDLESVHKNSIA | DLMTRTS | QQYHRLPLS | En_HC | 1.3 nM | 6 of 6 |
| KLMGSELGESRNKNSVA | SADTRES | QQYHRLPLS | GP_Gibbs | 6.7 nM | 6 of 6 |

Of ten entries with the parent sequence, four were seen in most replicates (averages 2.2 nM to 240 nM), three in one and three in none, so single entries are noisy. In the paper, a design with two or fewer of six values counts as a poor binder. A sequence measured in both rounds can read differently, since the two assays cover different ranges. Empty control strains, which show no peptide, gave a signal in 4% of pairings with all light chain designs; the median was 430 nM and 95% of these signals were weaker than 38 nM. No background was subtracted.

Values reported by Li et al. 2023, doi:10.1038/s41467-023-39022-2 (FLAb copy).